# Laboratory results: patent US9120797B2, “Process for preparing spirocyclic cyclohexane compounds, compositions containing such compounds and method of using such compounds” (dated 2015)
# Test system: mice
# Assay: Tail flick test in mice
# Conditions: dose 1 mg/kg, % of maximum possible antinociceptive effect
structure (smiles),measurement,value
CN(C)C1(c2ccccc2)CCC2(CC1)NCCc1c2[nH]c2ccc(F)cc12 (stereo not shown),"Tail flick (mouse, i.v.) % inhibition (dose [mg/kg])",89% (1)
